These results are taken from US8623906B2, “Carboxy isatin hydrazones and their esters as Shp2 inhibitors” (H. Lee Moffitt Cancer Center and Research Institute, Inc., priority 2009, dated 2014).

The test system of the assay is GST-Shp2 PTP domain protein. As to conditions: tested form: meglumine salt.

A word on the IC50: it is the concentration needed to halve the response being measured.

For `O=C1Nc2ccc(S(=O)(=O)NCc3ccc(F)cc3)cc2C1=NNc1cccc(C(=O)O)c1`, the IC50 came out at 2800 nM.
